Test results as given in paper PMC7703809 (ChemMedChem, 2020).
Non-standard residues stand in square brackets, D forms with d. Residues, ends and D or L forms follow the SMILES beside them. pT = C[C@@H](OP(=O)(O)O)[C@H](N)C(=O)O

Amino acid sequences for entries named in this document (tags omitted). Residues count along the entry.
UniProt P53350, 367-603: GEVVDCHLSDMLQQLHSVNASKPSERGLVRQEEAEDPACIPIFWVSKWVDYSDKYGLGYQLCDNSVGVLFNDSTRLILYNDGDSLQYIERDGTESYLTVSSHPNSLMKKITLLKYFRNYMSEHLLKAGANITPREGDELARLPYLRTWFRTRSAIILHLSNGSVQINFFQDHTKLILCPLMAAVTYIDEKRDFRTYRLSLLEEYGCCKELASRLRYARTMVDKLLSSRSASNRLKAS

Target: PLK1 PBD (367–603) (Homo sapiens, UniProt P53350)
Experiment: Fluorescence polarization competitive binding assay, PLK1 PBD
Details: PLK1 vs PLK3 PBD, accounting for 5-fold difference in tracer affinity

SMILES: CC(=O)N1CCC[C@H]1C(=O)N[C@@H](CC(C)C)C(=O)N[C@@H](Cc1c[nH]cn1)C(=O)N[C@@H](CO)C(=O)N[C@H](C(=O)N[C@@H](C)C(=O)O)[C@@H](C)OP(=O)(O)O [Compound 6, Ac-PLHS[pT]A] (Ac-PLHS[pT]A-OH)
- Selectivity Index: >6500
